Assay outcomes from PubChem.
FGF22 binding-1: binders of recombinant human FGF22 by thermal shift; SYPRO orange fluorescence; percent of sucrose octasulfate shift, DMSO zero; activity (Tm shift, normalised), % at 9.99 µM; 1.5% of 340,000 active; AID 651658;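 active = mean Tm shift, scaled 0 neutral to 100 positive control, at about 1.3% or above, every replicate too, limit read from the data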
ERp5 block: blocks human ERp5 reductase activity on insulin | Q15084 | ERp5 insulin aggregation, absorbance 650 nm, 90 min | inhibition, % at 9.99 µM | 0.05% of 350,000 active;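 active = mean replicate inhibition above about 25%, with every replicate also reaching it, limit read from the data, passing the limit was not always enough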
SIRT5 block: blocks human SIRT5 desuccinylation of peptide. 1.1% of 330,000 active. inhibition, % at 15 µM. Q9NXA8. Purified SirT5, succinyl-peptide AMC, trypsin-coupled fluorescence. AID 652115; in the data active = inhibition above about 15%
Yeast UUG start: modulators of yeast start codon fidelity, primary screen, whole organism, S. cerevisiae, single point, plate reader; S. cerevisiae UUG-firefly luciferase reporter, luminescence/redox ratio; activity score, % at 18.7 µM; 0.13% of 350,000 active; AID 602363, 2012;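 active = replicate mean at a twofold rise or more, about +100% in these data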;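 also: firefly luciferase made from a UUG start codon reports start codon fidelity; reporter light over untreated wells divided by growth signal over untreated wells; some hits fall short of that in this replicate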
S100A4 inh HTS: blocks human S100A4 binding to myosin IIA peptide. P26447. S100A4/TAMRA-MyoIIA peptide fluorescence polarization. inhibition, % at 10.7 µM. 0.14% of 360,000 active. AID 652163;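 active = mean inhibition of at least 70% across replicates, with every replicate also reaching that level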
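assay system = human S100A4 monomer with TAMRA-labelled myosin IIA peptide | also added = labelled myosin peptide probe, 5 nM | incubation = 5 min between mix addition and reading | control set = DMSO and TFP controls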
PDI turbidity: inhibitors of human protein disulfide isomerase | 0.052% of 350,000 active | P07237 | inhibition, % at 10 µM | PDI insulin aggregation turbidity, A650, 90 min;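 active = mean inhibition across replicates of 30% or more, whatever share of single replicates reach that level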
FGF22 binding-2: FGF22 (human) binding in thermal shift | shares compounds with FGF22 binding-1 | 2% of 1,000 active | recombinant FGF22 thermal shift, SYPRO orange fluorescence | thermal shift activity, °C (ΔTm) at 38 µM;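 active = fitted rise in melting shift crosses a set limit at or below the top valid dose tested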
FGF22 TSA: binders of human FGF22 by thermal shift; 50 tested, under 10 active; Thermal shift assay, SYPRO orange, melting temperature shift; shares compounds with FGF22 binding-1; Tm shift (activity), % at 38 µM;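 active = compounds whose fitted dose curve of melting temperature shift rises past a set threshold within the tested doses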
TSA no protein: compound-only SYPRO artifact for FGF22 binders. AC50, µM (series often up to 38 µM). compound-only SYPRO orange thermal shift counter-screen, no protein. AID 743019. shares compounds with FGF22 binding-1. 2% of 1,000 active;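 active = rising signal whose fitted curve reaches the 0.54 level within the top valid dose, showing a melting point, actives reach about 13 µM in these data; inactive = the rest, including activity in the opposite direction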; note: value is where the raw curve crosses a fixed level and not half-maximal
The depositor's hits bear a star; i = inactive; x = not tested or not shown; [ ] = remark or other dose. A selection: hits, their analogues and other compounds. The true share with any hit is near 2.2%.

The opening 5 records, ahead of the listing:
SMILES | FGF22 binding-1 | ERp5 block | SIRT5 block | Yeast UUG start | S100A4 inh HTS | PDI turbidity | FGF22 binding-2 | TSA no protein | others
C[C@@H]1CN([C@H](C)CO)C(=O)c2cc(C#CCN(C)C)cnc2O[C@H]1CN(C)Cc1ccc2c(c1)OCO2 | 0 | 5 | 1 | -15 | 8 | x | x | x
Cc1c2c(n3c(nc4ccccc43)c1C#N)N(CCN(C)C)CC2 | 1.4* | 0 | -42 | x | -5 | -1 | 0.03 | i
CC(=O)c1c(C)nc2ccc(Br)cc2c1-c1ccccc1 | 0 | -4 | 2 | x | 1 | -3 | x | x
Cc1nc2ccc(Br)cc2c(-c2ccccc2)c1C(=O)O | 29* | 4 | -1 | x | -1 | -7 | 0.11 | i
Cc1ccc(-n2c(O)c(C=NC3CCS(=O)(=O)C3)c3ccccc3c2=O)cc1C (stereo not drawn) | 1.7* | -2 | -1 | 0 | 6 | 5 | 0.035 | i

Main list, from the start:
SMILES | FGF22 binding-1 | ERp5 block | SIRT5 block | Yeast UUG start | S100A4 inh HTS | PDI turbidity | FGF22 binding-2 | TSA no protein | others
C[C@@H]1CN([C@H](C)CO)C(=O)c2cc(C#CCN(C)C)cnc2O[C@H]1CN(C)Cc1ccc2c(c1)OCO2 | 0 | 5 | 1 | -15 | 8 | x | x | x
Cc1c2c(n3c(nc4ccccc43)c1C#N)N(CCN(C)C)CC2 | 1.4* | 0 | -42 | x | -5 | -1 | 0.03 | i
CC(=O)c1c(C)nc2ccc(Br)cc2c1-c1ccccc1 | 0 | -4 | 2 | x | 1 | -3 | x | x
Cc1nc2ccc(Br)cc2c(-c2ccccc2)c1C(=O)O | 29* | 4 | -1 | x | -1 | -7 | 0.11 | i
Cc1ccc(-n2c(O)c(C=NC3CCS(=O)(=O)C3)c3ccccc3c2=O)cc1C (stereo not drawn) | 1.7* | -2 | -1 | 0 | 6 | 5 | 0.035 | i
Cc1cccc(-n2c(O)c(C=NC3CCS(=O)(=O)C3)c3ccccc3c2=O)c1 (stereo not drawn) | x | x | x | -19 | x | -7 | x | x
O=C(COC(=O)CCCOc1ccc(Cl)cc1Cl)NCc1ccccc1 | 32* | 3 | -4 | -28 | -2 | -13 | 0.28 | i
Cc1ccc(CNC(=O)COC(=O)CCCOc2ccc(Cl)cc2Cl)cc1 | 0 | -4 | -2 | -9 | 0 | 0 | x | x
C[C@@H]1CN([C@@H](C)CO)C(=O)c2cc(NC(=O)Nc3ccc4c(c3)OCO4)ccc2O[C@@H](C)CCCCO[C@H]1CN(C)Cc1ccncc1 | 0 | 4 | -6 | 1 | 5 | x | x | x
O=C(N/N=C/c1ccc[nH]1)c1cc2ccccc2cc1O | 1.8* | -2 | 5 | -21 | 2 | 3 | 0.084 | i
COC(=O)C1=C(CS(=O)(=O)c2cc(OC)ccc2OC)NC(=O)NC1c1ccc(O)c(OC)c1 (stereo not drawn) | 1.5* | -4 | -1 | -4 | -2 | 7 | 0.37 | i | FGF22 TSA=0
O=C(CCc1ccccc1)c1c(O)cc(O)cc1O | 21* | 5 | x | -9 | -3 | x | 0.089 | i
C[C@@H]1CN([C@@H](C)CO)C(=O)c2cc(NC(=O)C3CC3)ccc2O[C@@H]1CN(C)C(=O)Nc1ccc2c(c1)OCO2 | 2.4* | -5 | 2 | 14 | 0 | x | -0.004[42 µM] | i
C[C@H](CO)N1C[C@H](C)[C@@H](CN(C)C(=O)Nc2ccc3c(c2)OCO3)Oc2c(NC(=O)c3cnccn3)cccc2C1=O | 6.3* | 1 | 2 | 3 | -2 | x | 0.054[42 µM] | i
C[C@H](CO)N1C[C@H](C)[C@H](CN(C)C(=O)Nc2ccc3c(c2)OCO3)Oc2c(NC(=O)c3cnccn3)cccc2C1=O | 0 | -4 | 0 | 10 | 1 | x | x | x
C[C@H]1CN([C@@H](C)CO)C(=O)c2cc(NS(=O)(=O)c3ccc(Cl)cc3)ccc2O[C@@H]1CN(C)C(=O)Nc1ccc2c(c1)OCO2 | 2.5* | 2 | 3 | 12 | -4 | x | 0.11[42 µM] | i
C[C@H](CO)N1C[C@H](C)[C@@H](CN(C)C(=O)Nc2ccc3c(c2)OCO3)Oc2ccc(NC(=O)C3CC3)cc2C1=O | 1 | -8 | 0 | -1 | -7 | x | x | x
Cc1noc(C)c1NC(=O)Nc1ccc2c(c1)C(=O)N([C@@H](C)CO)C[C@H](C)[C@H](CN(C)Cc1ccc(C(F)(F)F)cc1)O2 | 0 | 4 | 5 | x | -34 | x | x | x
C[C@@H]1CN([C@H](C)CO)C(=O)c2cc(NC(=O)Nc3ccccc3)ccc2O[C@@H](C)CCCCO[C@H]1CN(C)C(=O)c1ccccc1 | 0 | -8 | -1 | 1 | 10 | x | x | x
CC(=O)Nc1cccc(C(=O)N/N=C/c2c[nH]c3ccccc23)c1 | 3.8* | -1 | 5 | -3 | 0 | -2 | x | i | FGF22 TSA=0
Cc1ccsc1/C=N/NC(=O)c1c[nH]c2ccccc12 | x | x | x | -13 | x | -5 | x | x
O=C(N/N=C/c1c[nH]c2ccccc12)c1cccc(Cl)c1 | 2.8* | -1 | 2 | -17 | 4 | 5 | x | i | FGF22 TSA=0
O=C(N/N=C/c1c[nH]c2ccccc12)c1ccc(O)c(O)c1 | 2.4* | 1 | 5 | -17 | 8 | 7 | -0.034 | i | FGF22 TSA=0
O=C(N/N=C/c1ccsc1)c1c[nH]c2ccccc12 | 3.7* | -4 | 2 | -13 | 0 | 13 | -0.063 | i
Cc1noc(C)c1S(=O)(=O)N(C)C[C@H]1Oc2ccc(NC(=O)CCCCCC(=O)Nc3ccccc3N)cc2CC(=O)N([C@@H](C)CO)C[C@@H]1C | 0 | 5 | 2 | x | -4 | x | x | x
CN(C)C(=O)c1cccc(-c2ccc([C@@H]3[C@@H](CO)N4CCCCN(C(=O)C5CCCC5)C[C@@H]34)cc2)c1 | 0 | 6 | 3 | -7 | 8 | x | x | x
COc1ccc(NC(=O)N(C)C[C@@H]2OCCCC[C@@H](C)Oc3ccc(NC(=O)C4CCCCC4)cc3C(=O)N([C@@H](C)CO)C[C@H]2C)cc1 | 0 | -2 | -3 | 2 | 1 | x | x | x
CC(C)NC(=O)Nc1ccc2c(c1)CC(=O)N([C@@H](C)CO)C[C@@H](C)[C@H](CN(C)C(=O)Nc1ccc3c(c1)OCO3)O2 | -1 | 5 | 5 | 30 | -2 | x | x | x
O=C(N/N=C/c1c[nH]c2ccccc12)c1cccc(O)c1 | 2.1* | 1 | 1 | -5 | 0 | 2 | 0.52 | i | FGF22 TSA=1
COc1ccc(C(=O)N/N=C/c2c[nH]c3ccccc23)cc1 | 0 | -10 | 2 | -10 | -4 | -3 | x | x
COC(=O)c1nnc(-c2ccccc2)nc1OC | x | x | x | x | x | -3 | x | x
COc1nc(-c2ccc(Cl)cc2)nnc1C | 1.4* | 3 | 0 | x | 3 | 5 | -0.009 | i
CCN1C(=O)C(CC(=O)Nc2ccc(F)cc2)N(Cc2ccc3c(c2)OCO3)C1=S (stereo not drawn) | 2.9* | -1 | -1 | 1 | -21 | -4 | -0.21 | i | FGF22 TSA=0
CCC(=O)Nc1ccc2c(c1)C(=O)N(C)[C@H]1CC[C@H](CC(=O)NCCN3CCCCC3)O[C@@H]1CO2 | 0 | -28 | -3 | -7 | -22 | x | x | x
O=C(C[C@H]1CC[C@H](NC(=O)C2CCOCC2)[C@@H](CO)O1)NCC1CC1 | x | 0 | 0 | x | -4 | x | x | x
Nc1ccc(C(=O)Nc2ccc(OC(F)(F)C(F)F)c(NC(=O)c3ccc(N)cc3)c2)cc1 | 1.7* | 0 | x | -12 | -6 | -5 | -0.69 | i
O=C(Nc1ccc(OC(F)(F)C(F)F)c(NC(=O)c2ccc(F)cc2)c1)c1ccc(F)cc1 | x | x | x | -3 | x | 4 | x | x
